# Results from the OPERA property sets (Mansouri et al. 2018).
# Details: experimental values compiled from the literature
smiles,measurement,value
O=C1C2CC=CCC2C(=O)N1SC(Cl)(Cl)C(Cl)Cl (stereo unspecified),logP,3.8
